What was measured:
Format in all cases: cell-based
Parameters in all cases: scale not given: the % may be the effect or the level left
[1] = biological target: T1, P2X purinoceptor 1 (Homo sapiens) (UniProt P51575); experiment: Antagonist activity at human P2X1R transfected in CHO-K1 cells at 30 uM preincubated for 30 mins followed by alpha,beta-meATP addition by […] based assay relative to control
T1 sequence (whole entry): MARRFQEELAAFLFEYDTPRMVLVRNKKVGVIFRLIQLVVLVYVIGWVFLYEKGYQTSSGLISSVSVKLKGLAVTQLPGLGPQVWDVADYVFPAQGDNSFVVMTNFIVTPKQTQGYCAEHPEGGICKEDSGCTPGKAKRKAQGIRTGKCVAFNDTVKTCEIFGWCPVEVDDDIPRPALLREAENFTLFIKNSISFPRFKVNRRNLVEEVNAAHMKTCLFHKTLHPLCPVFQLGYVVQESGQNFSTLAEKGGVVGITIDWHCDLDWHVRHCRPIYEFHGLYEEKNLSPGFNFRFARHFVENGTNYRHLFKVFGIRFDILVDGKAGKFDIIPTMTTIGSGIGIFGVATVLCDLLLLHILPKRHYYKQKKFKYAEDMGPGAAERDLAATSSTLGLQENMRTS

Protein sequences, listed by entry. Tags and fused reporters are not part of them. Lines headed by an entry give the natural chain unless they say otherwise; changes in a name come on top.
UniProt Q9UBL9: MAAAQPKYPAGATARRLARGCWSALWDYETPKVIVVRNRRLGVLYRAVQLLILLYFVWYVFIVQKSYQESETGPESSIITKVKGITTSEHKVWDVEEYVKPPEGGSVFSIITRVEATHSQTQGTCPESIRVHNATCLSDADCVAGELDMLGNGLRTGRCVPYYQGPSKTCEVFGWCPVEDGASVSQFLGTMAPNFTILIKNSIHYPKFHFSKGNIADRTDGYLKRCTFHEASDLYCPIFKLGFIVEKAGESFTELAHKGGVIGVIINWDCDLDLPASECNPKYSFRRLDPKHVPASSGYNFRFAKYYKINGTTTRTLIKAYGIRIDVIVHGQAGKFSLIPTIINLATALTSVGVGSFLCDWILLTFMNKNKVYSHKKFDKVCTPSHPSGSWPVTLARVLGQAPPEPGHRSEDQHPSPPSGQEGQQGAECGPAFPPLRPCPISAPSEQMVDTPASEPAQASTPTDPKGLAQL

[2] = biological target: P2X2/P2X3 heterotrimeric receptor (Homo sapiens) (UniProt Q9UBL9+P56373); experiment: Antagonist activity at human P2X2/3R transfected in CHO-K1 cells at 30 uM preincubated for 30 mins followed by alpha,beta-meATP addition by fluorescence based assay relative to control
[3] = biological target: T2, P2X purinoceptor 3 (Homo sapiens) (UniProt P56373); experiment: Antagonist activity at human P2X3R transfected in CHO-K1 cells at 30 uM preincubated for 30 mins followed by alpha,beta-meATP addition by fluorescence based assay relative to control
T2 sequence (whole entry): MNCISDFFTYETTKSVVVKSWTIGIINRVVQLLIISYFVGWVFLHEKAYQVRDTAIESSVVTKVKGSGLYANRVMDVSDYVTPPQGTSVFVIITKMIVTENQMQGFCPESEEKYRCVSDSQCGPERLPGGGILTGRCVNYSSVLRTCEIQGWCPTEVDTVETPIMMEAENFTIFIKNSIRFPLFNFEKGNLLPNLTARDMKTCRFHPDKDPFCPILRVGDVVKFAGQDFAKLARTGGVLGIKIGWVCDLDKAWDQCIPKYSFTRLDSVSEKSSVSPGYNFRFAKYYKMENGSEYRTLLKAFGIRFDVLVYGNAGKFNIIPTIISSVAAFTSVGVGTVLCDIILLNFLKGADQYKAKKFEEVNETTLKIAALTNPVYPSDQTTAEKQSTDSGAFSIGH

Row | SMILES | Activity [1] | Activity [2] | Activity [3]
1 | Cc1ccc2c3c(ccc2c1)N(c1cccc(-c2noc(=S)[nH]2)c1)C(=O)CC(=O)N3 | -4% | 11% | 6%
2 | Cc1ccc2ccc3c(c2c1)NC(=O)CC(=O)N3c1cccc(-c2noc(=S)[nH]2)c1 | 6% | 9% | 13%
3 | O=C1CC(=O)N(c2cccc(-c3noc(=S)[nH]3)c2)c2cc(Br)c3ccccc3c2N1 | 5% | 11% | 7%
4 | CCN(CC)CC.O=C1CC(=O)N(c2ccnc(-c3noc(=S)[nH]3)c2)c2ccc3ccccc3c2N1 | 15% | 0% | 11%

Reference: ChEMBL document CHEMBL5104186, “Structure-Activity Relationship and Neuroprotective Activity of 1,5-Dihydro-2H-naphtho[1,2-b][1,4]diazepine-2,4(3H)-diones as P2X4 Receptor Antagonists” (J Med Chem, 2022)
